Test system: LNCaP
Assay: Cytotoxicity against human LNCAP cells expressing CB2 receptor assessed as decrease in cell viability after 72 hrs by neutral red uptake and accumulation assay
Format: functional, cell-based

Structure (SMILES)	Activity
CC1CCC(NC(=O)c2c(O)c3cccnc3n(Cc3ccc(F)cc3)c2=O)CC1 (configuration not stated)	Dose-dependent effect
CCCCCn1c(=O)c(C(=O)NC2CCC(C)CC2)cc2ccccc21 (configuration not stated)	Dose-dependent effect

— ChEMBL document CHEMBL3421611, “New quinolone- and 1,8-naphthyridine-3-carboxamides as selective CB2 receptor agonists with anticancer and immuno-modulatory activity” (Eur J Med Chem, 2015)
